Measurements taken from patent US7166739B2, “Esters of monomethyl branched alcohols and process for preparing and using same in cosmetics and personal care products” (Finetex, Inc., priority 2004, dated 2007).

How the values were obtained:
Assay type in all cases: physicochemical
[1] = Surface tension of esters (typical properties)
Procedure: (§1) An analysis of the esters of the invention, i.e., Benzoate ester (Ref. No. 130-63); Octanoate Ester (Ref. No. 130-67); and Maleate Ester (Ref. No. 134-26), was conducted as to appearance, color, percentage water, acidity, saponification value, surface tension, spreading coefficient, freezing point, refractive index and specific gravity. The results are presented in Table I which identifies typical properties of the esters of the invention.

[2] = Spreading coefficient of esters (typical properties); design: unit not given here
Procedure: as §1

[3] = Viscosity of esters (typical properties); settings: @ 25° C.
Procedure: as §1

Substance | Surface Tension [1] | Spreading Coefficient [2] | Viscosity [3]
C16–17 alkyl octanoate [Octanoate Ester (130-67)] | 32.5 dynes/cm | 32.5 | 44 cps
C16–C17 alkyl benzoate [Benzoate Ester (130-63)] | 32 dynes/cm | 33.5 | 60 cps
